Article PMC4835159 (Journal of Medicinal Chemistry, 2016)

Biological target: T1, CYP144TR (Mycobacterium tuberculosis, UniProt P9WPL1)
T1 sequence (P9WPL1 31-434 limits assumed): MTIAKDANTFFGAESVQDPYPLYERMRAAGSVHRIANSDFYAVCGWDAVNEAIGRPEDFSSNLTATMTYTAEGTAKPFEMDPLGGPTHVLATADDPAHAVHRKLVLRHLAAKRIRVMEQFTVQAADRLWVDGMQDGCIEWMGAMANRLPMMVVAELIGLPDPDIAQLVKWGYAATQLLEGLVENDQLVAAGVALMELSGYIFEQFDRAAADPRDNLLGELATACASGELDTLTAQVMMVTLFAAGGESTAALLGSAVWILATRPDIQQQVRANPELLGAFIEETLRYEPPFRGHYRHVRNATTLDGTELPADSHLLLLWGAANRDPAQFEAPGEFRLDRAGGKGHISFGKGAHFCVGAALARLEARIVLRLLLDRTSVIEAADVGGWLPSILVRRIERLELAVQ

Nc1cccc(-c2cc(-c3c(-c4ccc(O)cc4)n[nH]c3N)ccc2O)c1 [25b, 3′-Amino-5-(5-amino-3-(4-hydroxyphenyl)-1H-pyrazol-4-yl)-[1,1′-biphenyl]-2-ol]
Kd: 248 µM
